Amino acid sequences for entries named in this document (tags omitted). A change or cut given only in a name is not applied to a line headed by its entry.
UniProt Q12809: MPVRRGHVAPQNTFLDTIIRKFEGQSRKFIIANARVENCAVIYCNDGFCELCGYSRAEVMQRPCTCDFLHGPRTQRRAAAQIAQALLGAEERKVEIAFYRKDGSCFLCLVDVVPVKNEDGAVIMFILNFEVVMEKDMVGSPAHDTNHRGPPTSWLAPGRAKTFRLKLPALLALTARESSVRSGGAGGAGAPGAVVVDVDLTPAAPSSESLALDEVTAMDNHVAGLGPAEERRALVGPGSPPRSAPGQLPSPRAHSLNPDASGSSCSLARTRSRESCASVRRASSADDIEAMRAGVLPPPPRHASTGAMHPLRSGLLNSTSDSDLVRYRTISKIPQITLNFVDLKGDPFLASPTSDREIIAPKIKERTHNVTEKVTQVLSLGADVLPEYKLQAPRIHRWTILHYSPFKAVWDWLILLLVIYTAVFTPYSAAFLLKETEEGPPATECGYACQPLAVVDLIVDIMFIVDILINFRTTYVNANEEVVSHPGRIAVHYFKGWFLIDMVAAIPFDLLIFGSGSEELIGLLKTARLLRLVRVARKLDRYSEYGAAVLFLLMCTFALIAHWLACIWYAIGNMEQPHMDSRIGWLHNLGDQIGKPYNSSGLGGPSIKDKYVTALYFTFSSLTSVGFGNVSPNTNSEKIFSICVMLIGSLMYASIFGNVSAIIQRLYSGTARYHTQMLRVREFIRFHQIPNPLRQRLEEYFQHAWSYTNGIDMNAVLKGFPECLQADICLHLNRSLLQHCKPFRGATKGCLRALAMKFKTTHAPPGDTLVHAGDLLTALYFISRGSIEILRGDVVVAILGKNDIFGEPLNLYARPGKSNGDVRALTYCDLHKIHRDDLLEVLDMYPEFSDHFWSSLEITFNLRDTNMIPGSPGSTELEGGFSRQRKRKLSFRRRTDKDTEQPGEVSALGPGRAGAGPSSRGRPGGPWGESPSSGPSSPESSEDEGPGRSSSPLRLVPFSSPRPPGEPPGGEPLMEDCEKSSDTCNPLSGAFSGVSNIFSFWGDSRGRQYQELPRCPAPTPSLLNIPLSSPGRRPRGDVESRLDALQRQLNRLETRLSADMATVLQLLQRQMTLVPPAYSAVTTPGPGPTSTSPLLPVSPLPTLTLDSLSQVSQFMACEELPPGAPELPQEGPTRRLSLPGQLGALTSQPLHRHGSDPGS
UniProt P11229: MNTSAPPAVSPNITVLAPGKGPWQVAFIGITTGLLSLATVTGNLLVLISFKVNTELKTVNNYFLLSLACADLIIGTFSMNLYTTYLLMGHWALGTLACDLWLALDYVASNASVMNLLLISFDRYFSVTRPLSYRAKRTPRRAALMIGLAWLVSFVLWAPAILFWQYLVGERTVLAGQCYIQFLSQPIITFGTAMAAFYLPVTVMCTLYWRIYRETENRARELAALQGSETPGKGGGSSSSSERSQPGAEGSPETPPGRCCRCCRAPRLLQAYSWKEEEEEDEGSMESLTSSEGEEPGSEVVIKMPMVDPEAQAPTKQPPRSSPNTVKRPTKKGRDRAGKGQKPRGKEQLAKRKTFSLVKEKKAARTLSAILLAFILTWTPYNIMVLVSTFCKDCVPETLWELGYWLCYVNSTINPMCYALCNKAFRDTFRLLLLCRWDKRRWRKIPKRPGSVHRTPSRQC
UniProt P28223, whole entry: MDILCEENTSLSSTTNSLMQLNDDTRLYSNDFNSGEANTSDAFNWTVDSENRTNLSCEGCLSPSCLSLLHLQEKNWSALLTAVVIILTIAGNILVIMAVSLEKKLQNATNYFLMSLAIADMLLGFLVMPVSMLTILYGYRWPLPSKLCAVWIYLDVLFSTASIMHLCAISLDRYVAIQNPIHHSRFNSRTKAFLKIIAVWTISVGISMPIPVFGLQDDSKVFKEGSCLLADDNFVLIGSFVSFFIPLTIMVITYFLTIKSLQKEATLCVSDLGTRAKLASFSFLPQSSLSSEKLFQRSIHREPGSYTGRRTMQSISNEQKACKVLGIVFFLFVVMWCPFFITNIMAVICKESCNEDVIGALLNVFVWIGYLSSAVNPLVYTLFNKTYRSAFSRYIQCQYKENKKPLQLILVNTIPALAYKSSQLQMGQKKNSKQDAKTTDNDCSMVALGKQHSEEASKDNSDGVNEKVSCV
UniProt P35367, whole entry: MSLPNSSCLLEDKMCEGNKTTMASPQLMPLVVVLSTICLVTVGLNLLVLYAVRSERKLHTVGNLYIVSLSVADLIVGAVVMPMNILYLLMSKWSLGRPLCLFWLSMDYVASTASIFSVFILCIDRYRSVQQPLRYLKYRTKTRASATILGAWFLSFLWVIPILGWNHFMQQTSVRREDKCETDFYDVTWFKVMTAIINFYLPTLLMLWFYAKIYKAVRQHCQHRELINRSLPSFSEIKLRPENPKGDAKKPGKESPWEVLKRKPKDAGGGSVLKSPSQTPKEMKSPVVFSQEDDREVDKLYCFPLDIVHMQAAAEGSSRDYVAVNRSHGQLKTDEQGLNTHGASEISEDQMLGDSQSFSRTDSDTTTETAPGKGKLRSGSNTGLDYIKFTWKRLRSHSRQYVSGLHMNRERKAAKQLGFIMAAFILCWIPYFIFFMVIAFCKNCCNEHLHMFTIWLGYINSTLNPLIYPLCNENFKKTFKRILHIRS
UniProt P22002, whole entry: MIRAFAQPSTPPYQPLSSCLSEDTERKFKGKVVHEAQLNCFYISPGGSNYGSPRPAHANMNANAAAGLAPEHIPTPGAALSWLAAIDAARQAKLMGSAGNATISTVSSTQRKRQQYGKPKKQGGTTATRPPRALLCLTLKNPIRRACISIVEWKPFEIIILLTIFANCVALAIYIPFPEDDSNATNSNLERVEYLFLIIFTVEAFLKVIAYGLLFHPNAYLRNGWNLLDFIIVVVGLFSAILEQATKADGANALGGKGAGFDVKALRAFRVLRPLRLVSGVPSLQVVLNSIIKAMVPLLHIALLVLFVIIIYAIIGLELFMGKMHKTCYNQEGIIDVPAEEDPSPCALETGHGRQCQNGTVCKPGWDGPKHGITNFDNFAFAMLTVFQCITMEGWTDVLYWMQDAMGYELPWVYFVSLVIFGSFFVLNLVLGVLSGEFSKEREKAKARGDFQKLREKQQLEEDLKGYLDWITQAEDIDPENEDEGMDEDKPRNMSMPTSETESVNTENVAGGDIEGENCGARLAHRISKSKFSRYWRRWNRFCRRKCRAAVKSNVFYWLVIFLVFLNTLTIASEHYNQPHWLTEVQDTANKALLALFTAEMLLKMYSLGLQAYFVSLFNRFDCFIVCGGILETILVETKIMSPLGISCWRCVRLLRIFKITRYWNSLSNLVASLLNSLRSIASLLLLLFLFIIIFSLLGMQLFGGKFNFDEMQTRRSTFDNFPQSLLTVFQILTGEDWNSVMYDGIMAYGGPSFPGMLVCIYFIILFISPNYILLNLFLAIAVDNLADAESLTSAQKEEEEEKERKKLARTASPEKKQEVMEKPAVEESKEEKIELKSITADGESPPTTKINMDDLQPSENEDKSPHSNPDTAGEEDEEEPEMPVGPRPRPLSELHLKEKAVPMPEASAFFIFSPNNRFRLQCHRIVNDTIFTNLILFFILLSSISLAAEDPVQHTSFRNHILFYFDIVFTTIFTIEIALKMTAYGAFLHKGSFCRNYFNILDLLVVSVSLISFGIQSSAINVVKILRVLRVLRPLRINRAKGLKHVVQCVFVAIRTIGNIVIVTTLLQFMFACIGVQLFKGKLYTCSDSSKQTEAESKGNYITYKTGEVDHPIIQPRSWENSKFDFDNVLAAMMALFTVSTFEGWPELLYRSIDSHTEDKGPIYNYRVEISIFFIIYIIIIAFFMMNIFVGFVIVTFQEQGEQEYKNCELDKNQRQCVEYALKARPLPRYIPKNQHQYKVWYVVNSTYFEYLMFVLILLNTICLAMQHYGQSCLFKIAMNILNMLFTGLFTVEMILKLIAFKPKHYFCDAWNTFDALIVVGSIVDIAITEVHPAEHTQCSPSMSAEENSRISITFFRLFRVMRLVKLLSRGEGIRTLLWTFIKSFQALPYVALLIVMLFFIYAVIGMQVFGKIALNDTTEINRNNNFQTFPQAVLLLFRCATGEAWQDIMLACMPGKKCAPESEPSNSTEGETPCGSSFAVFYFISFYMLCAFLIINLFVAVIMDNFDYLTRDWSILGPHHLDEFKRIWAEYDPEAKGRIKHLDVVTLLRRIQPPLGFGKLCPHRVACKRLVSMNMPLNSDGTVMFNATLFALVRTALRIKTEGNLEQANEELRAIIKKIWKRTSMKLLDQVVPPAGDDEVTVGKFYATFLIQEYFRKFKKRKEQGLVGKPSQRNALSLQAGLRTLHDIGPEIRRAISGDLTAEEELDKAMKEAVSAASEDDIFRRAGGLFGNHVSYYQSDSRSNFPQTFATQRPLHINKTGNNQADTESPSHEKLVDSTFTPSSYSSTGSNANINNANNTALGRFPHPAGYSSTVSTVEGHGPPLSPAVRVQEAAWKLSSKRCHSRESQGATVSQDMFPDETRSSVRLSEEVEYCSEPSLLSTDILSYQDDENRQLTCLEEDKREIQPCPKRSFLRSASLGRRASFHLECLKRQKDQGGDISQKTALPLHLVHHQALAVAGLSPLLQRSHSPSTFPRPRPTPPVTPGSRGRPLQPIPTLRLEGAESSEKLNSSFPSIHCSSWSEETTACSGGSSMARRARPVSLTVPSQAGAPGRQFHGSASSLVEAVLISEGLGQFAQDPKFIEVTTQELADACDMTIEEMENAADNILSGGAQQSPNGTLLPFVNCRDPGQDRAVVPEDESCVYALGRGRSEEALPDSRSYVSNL

In paper PMC11879040 (2024):

What was measured:
[1] = test system: Sodium channel protein type 5 subunit alpha (site 2), SCN5A (r); settings: IPP screening at 10 uM; control veratridine
[2] = target: Potassium voltage-gated channel subfamily H member 2 hERG, KCNH2 (h) (Homo sapiens, UniProt Q12809)
[3] = target: Muscarinic acetylcholine receptor M1, CHRM1 (h) (Homo sapiens, UniProt P11229)
[4] = target: 5-hydroxytryptamine receptor 2A, HTR2A (h) (Homo sapiens, UniProt P28223)
[5] = target: Histamine H1 receptor, HRH1 (h) (Homo sapiens, UniProt P35367); assay: IPP HRH1 binding (antagonist radioligand)
[6] = target: Voltage-dependent L-type Ca2+ channel (dihydropyridine site), CACNA1C (r) (Rattus norvegicus, UniProt P22002)

Row | Compound | IPP screening %, Specific binding [2] [%] | also measured
1 | CC(=O)N1CCN(c2ccc(OC[C@H]3CO[C@](Cn4ccnc4)(c4ccc(Cl)cc4Cl)O3)cc2)CC1 | – | Specific binding [1]: 47.6%
2 | CCN(CC)CCNC(=O)c1cc(Cl)c(N)cc1OC [Metoclopramide, 4-Amino-5-chloro-N-[2-(diethylamino)ethyl]-2-methoxybenzamide] | 46.0 | –
3 | (4S,4aR,5S,5aR,6S,12aS)-4-(Dimethylamino)-3,5,6,10,12,12a-hexahydroxy-6-methyl-1,11-dioxo-1,4,4a,5,5a,6,11,12a-octahydrotetracene-2-carboxamide--hydrogen chloride (1/1) [Oxytetracycline hydrochloride] | – | Specific binding [3]: 1.7%; Specific binding [4]: -21.8%; Specific binding [5]: 6.0%
4 | N#CC(CCc1ccc(Cl)cc1)(Cn1cncn1)c1ccccc1 (centres unmarked) [Fenbuconazole, 4-(4-Chlorophenyl)-2-phenyl-2-[(1H-1,2,4-triazol-1-yl)methyl]butanenitrile] | – | IPP Dose Response PoD: CACNA1C [6]: [8.5,12.5]
5 | O=P1(N(CCCl)CCCl)NCCCO1 (centres unmarked) [Cyclophosphamide, 2-[Bis(2-chloroethyl)amino]-1,3,2lambda~5~-oxazaphosphinan-2-one] | -10.7 | –
6 | CCOC(=O)c1ccc(N)cc1 [Benzocaine, Ethyl 4-aminobenzoate] | 13.7 | –
7 | C[C@@H]1C[C@H]2[C@@H]3CCC4=CC(=O)C=C[C@]4(C)[C@@]3(F)[C@@H](O)C[C@]2(C)[C@@]1(O)C(=O)CO [Dexamethasone, 9-Fluoro-11beta,17,21-trihydroxy-16alpha-methylpregna-1,4-diene-3,20-dione] | 0.0 | –
8 | CC(=O)Nc1ccc(O)cc1 [Paracetamol, N-(4-Hydroxyphenyl)acetamide] | -17.9 | –
9 | CCOP(=S)(OCC)Oc1nc(Cl)c(Cl)cc1Cl [Chlorpyrifos, O,O-Diethyl O-(3,5,6-trichloropyridin-2-yl) phosphorothioate] | 7.4 | –
